Measured values taken from ChEMBL document CHEMBL1914399 (Bioorg Med Chem Lett, 2011).

Key:
[1] = system: BMDM; assay: Inhibition of RANKL-induced NF-kappaB translocation in mouse BMDM cells by Western blot analysis
[2] = system: RAW264.7; assay: Inhibition of RANKL-induced NF-kappaB activation in mouse RAW264.7 cells at 10 uM by luciferase assay
[3] = system: BMDM; assay: Antiresorptive activity in mouse BMDM cells assessed as inhibition of MCSF-induced osteoclastogenesis by measuring TRAP-positive cells
[4] = system: Mus musculus; assay: Anti-resorptive activity in ovariectomized ddY mouse assessed as increase in proximal bone mass density at 10 mg/kg/day, po after 4 weeks of post ovariectomy by X-ray absorptiometry analysis
[5] = system: Osteoclast; assay: Antiresorptive activity in osteoclasts derived from mouse BMM cells assessed as inhibition of MCSF/RANKL-induced bone resorption
[6] = system: Mus musculus; assay: Anti-resorptive activity in ovariectomized ddY mouse assessed as restoration of lost trabecular bone at 10 mg/kg/day, po after 4 weeks of post ovariectomy by histomorphometric analysis relative to untreated control; conditions: Trabecula
[7] = system: BMDM; assay: Antiresorptive activity in mouse BMDM cells assessed as inhibition of RANKL-induced osteoclastogenesis by measuring TRAP-positive cells
[8] = system: Mus musculus; assay: Anti-resorptive activity in ovariectomized ddY mouse assessed as increase in total bone mass density at 10 mg/kg/day, po after 4 weeks of post ovariectomy by X-ray absorptiometry analysis
[9] = system: Mus musculus; assay: Anti-resorptive activity in ovariectomized ddY mouse assessed as increase in median bone mass density at 10 mg/kg/day, po after 4 weeks of post ovariectomy by X-ray absorptiometry analysis
[10] = system: BMDM; assay: Inhibition of RANKL-induced ERK activation in mouse BMDM cells by Western blot analysis

CC(C)N(/C(Cc1ccc([N+](=O)[O-])cc1)=N/P(=O)(Oc1ccccc1)Oc1ccccc1)C(C)C
active: inhibition [1] Dose-dependent effect | inhibition [2] Dose-dependent effect | inhibition [3] Dose-dependent effect | Activity [4] | inhibition [5] Dose-dependent effect | Activity [6] | inhibition [7] Dose-dependent effect | Activity [8] | Activity [9] | inhibition [10]

Calls of active or inactive are those of the source.
